Molecular target: T1, human mu opioid receptor (Homo sapiens, UniProt P35372)
T1 construct: expressed in transfected cells
Assay: Calcium mobilization in CHO cells co-expressing the mu receptor and Gαqi5
Assay type: cell-based

Sequences of proteins named here, by UniProt entry; tags and fusion partners are left off.
UniProt P35372, whole entry: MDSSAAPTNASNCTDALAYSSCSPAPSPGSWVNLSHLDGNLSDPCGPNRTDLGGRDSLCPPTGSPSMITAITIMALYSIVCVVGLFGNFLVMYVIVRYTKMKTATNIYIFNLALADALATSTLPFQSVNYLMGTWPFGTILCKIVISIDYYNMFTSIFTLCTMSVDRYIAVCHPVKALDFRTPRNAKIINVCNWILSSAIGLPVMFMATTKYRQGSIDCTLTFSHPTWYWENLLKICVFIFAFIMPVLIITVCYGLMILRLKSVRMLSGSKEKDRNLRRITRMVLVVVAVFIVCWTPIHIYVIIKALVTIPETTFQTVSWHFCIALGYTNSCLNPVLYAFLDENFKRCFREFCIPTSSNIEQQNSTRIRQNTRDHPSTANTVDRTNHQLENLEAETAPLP

C[C@@H](NC(=O)[C@@H](N)Cc1ccc(O)cc1)C(=O)N[C@@H](Cc1ccccc1)C(=O)NCC(=O)N[C@@H](Cc1ccc(O)cc1)C(=O)N1CCC[C@H]1C(=O)N[C@@H](CO)C(N)=O [Dermorphin]
EC50 (CHO cells, mu + Gαqi5): 0.0269 µM

CC[C@H](C)[C@H](NC(=O)[C@H](CCCNC(=N)N)NC(=O)[C@H](CCCNC(=N)N)NC(=O)[C@H](CC(C)C)NC(=O)[C@H](Cc1ccccc1)NC(=O)CNC(=O)CNC(=O)[C@@H](N)Cc1ccc(O)cc1)C(=O)N[C@@H](CCCNC(=N)N)C(=O)N1CCC[C@H]1C(=O)N[C@@H](CCCCN)C(=O)N[C@@H](CC(C)C)C(=O)N[C@@H](CCCCN)C(=O)N[C@@H](Cc1c[nH]c2ccccc12)C(=O)N[C@@H](CC(=O)O)C(=O)N[C@@H](CC(N)=O)C(=O)N[C@@H](CCC(N)=O)C(=O)O [Dyn A, dynorphin A]
Stimulation (only at the highest concentration tested): 154 % over the baseline

From PMC9068900, “Pharmacology of Kappa Opioid Receptors: Novel Assays and Ligands” (Frontiers in Pharmacology, 2022)
